Results as given in patent US20260384438A1, “PYRROLOPYRIMIDINE CARBOXAMIDES” (published 2026).

Protein sequences, listed by entry. Tags and fused reporters are not part of them.
UniProt P35626, whole entry: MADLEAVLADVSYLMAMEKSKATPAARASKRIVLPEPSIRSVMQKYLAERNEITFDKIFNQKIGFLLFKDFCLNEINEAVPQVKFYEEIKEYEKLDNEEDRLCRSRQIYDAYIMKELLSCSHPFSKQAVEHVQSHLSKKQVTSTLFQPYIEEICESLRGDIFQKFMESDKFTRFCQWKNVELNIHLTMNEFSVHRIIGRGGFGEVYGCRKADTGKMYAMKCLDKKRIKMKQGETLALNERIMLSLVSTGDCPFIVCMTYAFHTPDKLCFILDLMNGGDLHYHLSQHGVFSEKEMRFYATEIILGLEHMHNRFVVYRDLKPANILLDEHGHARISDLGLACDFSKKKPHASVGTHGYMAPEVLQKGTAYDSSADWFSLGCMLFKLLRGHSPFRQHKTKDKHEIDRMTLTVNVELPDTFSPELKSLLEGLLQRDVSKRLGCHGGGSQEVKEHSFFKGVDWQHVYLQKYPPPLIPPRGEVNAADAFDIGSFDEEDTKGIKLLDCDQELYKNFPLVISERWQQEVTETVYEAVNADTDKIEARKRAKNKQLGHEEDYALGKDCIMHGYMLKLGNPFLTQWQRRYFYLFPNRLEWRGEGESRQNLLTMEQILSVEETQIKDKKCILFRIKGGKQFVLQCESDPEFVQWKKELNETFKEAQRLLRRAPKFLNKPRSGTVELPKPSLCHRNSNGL
UniProt P31751, whole entry: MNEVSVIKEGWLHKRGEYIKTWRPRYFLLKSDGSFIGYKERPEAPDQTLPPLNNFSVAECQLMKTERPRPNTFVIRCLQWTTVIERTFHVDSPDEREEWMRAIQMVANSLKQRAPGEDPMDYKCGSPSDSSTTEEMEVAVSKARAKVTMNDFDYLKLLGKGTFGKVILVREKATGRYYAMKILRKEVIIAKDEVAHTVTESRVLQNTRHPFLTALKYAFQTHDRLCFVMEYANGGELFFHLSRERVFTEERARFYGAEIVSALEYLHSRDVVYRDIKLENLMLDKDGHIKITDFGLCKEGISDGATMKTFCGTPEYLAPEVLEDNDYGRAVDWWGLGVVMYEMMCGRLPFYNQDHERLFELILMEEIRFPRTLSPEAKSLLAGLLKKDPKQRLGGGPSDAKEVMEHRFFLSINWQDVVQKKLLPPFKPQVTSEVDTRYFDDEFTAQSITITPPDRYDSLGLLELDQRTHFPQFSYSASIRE
UniProt Q13131, whole entry: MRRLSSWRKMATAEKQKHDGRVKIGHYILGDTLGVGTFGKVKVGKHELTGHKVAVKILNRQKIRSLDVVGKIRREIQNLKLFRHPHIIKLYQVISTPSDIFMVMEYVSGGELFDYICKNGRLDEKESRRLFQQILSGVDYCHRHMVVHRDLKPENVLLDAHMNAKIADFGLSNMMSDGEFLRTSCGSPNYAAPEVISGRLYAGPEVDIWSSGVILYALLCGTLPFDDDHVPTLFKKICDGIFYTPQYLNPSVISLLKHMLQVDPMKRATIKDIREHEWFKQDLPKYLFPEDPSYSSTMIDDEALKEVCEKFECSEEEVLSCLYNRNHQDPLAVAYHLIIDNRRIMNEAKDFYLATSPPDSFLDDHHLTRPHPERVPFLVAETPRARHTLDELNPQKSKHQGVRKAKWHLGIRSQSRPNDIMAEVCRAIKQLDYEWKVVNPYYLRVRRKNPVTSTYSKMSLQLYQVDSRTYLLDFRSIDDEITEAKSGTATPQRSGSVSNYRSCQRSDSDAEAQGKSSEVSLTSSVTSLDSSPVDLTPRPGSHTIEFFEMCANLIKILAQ
UniProt P54646, whole entry: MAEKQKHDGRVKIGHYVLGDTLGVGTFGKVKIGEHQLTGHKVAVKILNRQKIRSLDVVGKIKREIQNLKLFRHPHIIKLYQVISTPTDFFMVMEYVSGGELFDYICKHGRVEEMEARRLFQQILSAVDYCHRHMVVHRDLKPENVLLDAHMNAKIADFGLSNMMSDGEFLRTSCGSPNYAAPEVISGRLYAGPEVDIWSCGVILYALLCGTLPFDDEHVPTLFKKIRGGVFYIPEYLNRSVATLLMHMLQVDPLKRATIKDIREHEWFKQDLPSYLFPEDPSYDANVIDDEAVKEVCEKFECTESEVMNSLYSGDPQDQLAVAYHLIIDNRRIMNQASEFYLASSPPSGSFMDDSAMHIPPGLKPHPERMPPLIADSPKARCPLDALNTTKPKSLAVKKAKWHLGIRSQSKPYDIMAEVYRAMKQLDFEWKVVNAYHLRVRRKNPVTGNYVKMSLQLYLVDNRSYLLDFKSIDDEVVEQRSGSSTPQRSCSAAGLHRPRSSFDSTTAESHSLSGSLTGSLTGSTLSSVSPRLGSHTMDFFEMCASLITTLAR
UniProt P48730, whole entry: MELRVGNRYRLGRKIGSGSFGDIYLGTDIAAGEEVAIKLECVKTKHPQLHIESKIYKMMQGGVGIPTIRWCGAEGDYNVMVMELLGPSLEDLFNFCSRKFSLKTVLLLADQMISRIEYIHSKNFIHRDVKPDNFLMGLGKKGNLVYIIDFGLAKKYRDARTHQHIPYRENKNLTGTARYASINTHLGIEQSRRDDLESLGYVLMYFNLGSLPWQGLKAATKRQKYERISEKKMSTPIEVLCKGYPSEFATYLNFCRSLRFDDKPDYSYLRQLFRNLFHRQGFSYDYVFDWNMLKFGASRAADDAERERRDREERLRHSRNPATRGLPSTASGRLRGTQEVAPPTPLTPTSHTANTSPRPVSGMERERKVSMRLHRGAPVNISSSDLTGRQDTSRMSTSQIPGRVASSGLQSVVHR
UniProt P53778, whole entry: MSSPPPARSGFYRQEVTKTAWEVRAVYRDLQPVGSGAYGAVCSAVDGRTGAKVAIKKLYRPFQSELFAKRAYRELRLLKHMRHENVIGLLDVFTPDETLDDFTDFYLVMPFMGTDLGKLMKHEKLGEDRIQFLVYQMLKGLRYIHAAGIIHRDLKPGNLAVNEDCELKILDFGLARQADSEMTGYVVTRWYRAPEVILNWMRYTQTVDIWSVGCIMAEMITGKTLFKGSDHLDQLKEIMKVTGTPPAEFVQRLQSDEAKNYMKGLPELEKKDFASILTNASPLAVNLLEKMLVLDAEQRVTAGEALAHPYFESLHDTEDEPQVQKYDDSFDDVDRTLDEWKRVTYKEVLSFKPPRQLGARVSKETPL
UniProt Q13164, whole entry: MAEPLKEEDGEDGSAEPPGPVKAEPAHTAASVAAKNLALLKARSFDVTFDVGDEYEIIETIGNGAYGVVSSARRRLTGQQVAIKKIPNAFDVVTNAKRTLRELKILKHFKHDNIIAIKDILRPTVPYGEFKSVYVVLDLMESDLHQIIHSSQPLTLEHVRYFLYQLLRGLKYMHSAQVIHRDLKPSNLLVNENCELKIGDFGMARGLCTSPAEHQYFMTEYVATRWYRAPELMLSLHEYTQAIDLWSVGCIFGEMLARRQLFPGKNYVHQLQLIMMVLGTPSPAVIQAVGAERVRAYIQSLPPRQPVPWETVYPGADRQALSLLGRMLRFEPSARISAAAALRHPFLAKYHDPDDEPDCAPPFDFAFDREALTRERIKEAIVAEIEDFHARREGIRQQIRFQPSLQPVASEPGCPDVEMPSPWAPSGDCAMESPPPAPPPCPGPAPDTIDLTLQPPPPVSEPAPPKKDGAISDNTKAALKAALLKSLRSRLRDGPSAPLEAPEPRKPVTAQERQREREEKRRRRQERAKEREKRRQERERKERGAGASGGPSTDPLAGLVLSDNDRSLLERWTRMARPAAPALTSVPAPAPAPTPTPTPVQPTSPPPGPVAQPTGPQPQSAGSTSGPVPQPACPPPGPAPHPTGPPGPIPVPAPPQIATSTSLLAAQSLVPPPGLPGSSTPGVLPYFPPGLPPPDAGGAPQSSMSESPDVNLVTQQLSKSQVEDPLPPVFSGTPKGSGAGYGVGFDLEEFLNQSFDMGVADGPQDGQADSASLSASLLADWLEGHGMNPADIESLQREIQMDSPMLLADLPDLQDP
UniProt Q16512, whole entry: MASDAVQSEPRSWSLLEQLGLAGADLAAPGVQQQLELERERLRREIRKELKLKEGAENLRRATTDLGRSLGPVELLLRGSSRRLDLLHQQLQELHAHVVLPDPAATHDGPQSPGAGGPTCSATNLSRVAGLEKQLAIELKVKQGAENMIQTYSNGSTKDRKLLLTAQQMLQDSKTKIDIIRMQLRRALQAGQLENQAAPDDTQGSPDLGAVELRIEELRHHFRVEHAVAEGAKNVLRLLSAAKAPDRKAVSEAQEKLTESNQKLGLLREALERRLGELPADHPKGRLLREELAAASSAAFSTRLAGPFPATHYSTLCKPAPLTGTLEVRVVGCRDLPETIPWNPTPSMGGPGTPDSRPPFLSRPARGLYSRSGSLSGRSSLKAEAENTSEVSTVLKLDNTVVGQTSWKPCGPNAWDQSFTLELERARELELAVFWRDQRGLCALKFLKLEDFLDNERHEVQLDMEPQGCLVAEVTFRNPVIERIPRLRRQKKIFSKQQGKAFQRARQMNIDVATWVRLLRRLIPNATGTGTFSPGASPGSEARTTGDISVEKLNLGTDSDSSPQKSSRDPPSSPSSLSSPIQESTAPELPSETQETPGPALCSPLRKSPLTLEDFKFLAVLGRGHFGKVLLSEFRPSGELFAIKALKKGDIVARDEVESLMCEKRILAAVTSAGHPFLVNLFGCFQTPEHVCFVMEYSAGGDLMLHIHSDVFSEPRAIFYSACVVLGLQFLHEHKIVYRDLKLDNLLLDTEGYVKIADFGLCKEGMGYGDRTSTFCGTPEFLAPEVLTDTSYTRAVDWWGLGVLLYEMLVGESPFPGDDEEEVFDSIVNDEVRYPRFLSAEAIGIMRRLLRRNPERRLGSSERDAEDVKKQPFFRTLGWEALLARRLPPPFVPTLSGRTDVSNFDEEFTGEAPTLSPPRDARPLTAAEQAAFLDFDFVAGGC
UniProt P05771, whole entry: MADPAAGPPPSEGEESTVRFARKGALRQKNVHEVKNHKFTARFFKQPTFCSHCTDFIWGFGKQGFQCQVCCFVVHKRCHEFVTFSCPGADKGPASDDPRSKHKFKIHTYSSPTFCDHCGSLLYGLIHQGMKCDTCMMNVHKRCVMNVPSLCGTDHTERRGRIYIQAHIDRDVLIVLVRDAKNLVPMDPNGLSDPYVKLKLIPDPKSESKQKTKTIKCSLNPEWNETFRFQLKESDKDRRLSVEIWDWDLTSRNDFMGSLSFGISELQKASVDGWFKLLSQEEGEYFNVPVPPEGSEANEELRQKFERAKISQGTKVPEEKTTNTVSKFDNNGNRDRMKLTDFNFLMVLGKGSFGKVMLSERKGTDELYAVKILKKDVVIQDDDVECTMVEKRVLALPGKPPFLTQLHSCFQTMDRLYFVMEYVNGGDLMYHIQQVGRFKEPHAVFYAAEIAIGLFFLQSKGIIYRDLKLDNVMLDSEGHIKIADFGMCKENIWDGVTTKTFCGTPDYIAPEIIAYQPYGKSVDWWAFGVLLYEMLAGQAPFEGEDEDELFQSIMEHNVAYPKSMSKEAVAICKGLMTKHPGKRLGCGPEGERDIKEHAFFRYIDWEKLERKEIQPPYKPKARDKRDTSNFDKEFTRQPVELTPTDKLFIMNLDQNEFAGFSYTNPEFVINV
UniProt P41743, whole entry: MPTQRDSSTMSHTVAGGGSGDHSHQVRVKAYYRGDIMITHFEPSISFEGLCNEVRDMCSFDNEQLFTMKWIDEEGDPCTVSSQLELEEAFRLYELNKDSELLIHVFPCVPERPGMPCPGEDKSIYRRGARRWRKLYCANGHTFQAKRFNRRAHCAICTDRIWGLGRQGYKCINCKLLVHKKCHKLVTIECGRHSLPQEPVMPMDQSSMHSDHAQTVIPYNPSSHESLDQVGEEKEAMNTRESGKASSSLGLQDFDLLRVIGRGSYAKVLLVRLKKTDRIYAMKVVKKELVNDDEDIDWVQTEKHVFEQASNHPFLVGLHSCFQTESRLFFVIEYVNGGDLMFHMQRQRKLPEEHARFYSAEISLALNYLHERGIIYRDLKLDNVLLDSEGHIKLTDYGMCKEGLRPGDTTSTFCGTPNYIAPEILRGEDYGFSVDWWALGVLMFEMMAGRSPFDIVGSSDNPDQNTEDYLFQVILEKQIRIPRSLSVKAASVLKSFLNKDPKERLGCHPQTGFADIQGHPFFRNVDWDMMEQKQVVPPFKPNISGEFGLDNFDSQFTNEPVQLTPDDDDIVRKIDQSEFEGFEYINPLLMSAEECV
UniProt Q9Y6E0, whole entry: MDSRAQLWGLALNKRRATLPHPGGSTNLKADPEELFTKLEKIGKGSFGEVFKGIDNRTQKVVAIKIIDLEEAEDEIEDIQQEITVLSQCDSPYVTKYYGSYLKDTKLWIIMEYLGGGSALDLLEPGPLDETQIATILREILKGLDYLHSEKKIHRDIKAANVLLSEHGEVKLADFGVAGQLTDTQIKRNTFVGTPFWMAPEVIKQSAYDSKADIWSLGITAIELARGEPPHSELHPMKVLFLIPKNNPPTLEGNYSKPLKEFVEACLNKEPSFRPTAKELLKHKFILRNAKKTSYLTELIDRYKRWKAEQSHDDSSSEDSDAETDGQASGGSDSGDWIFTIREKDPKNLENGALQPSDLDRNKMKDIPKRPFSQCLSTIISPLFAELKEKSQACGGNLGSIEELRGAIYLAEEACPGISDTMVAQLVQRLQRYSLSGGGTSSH

Tests used:
Assay in all cases: Kinase profiling, Z-Lyte
ADRBK1 (GRK2) = ADRBK1 (GRK2) (Homo sapiens, UniProt P25098); conditions: 1 μM, KmATP
ADRBK2 (GRK3) = ADRBK2 (GRK3) (Homo sapiens, UniProt P35626); conditions: 1 μM, KmATP
AKT2 (PKB beta) = AKT2 (PKB beta) (Homo sapiens, UniProt P31751); conditions: 1 μM, KmATP
AKT3 (PKB gamma) = AKT3 (PKB gamma) (Homo sapiens, UniProt Q9Y243); conditions: 1 μM, KmATP
AMPK A1/B1/G1 = AMPK A1/B1/G1 (Homo sapiens, UniProt Q13131); conditions: 1 μM, KmATP
AMPK A2/B1/G3 = AMPK A2/B1/G3 (Homo sapiens, UniProt P54646); conditions: 1 μM, KmATP
BRSK1 (SAD1) = BRSK1 (SAD1) (Homo sapiens, UniProt Q8TDC3); conditions: 1 μM, KmATP
CAMK1D = CAMK1D (Homo sapiens, UniProt Q8IU85); conditions: 1 μM, KmATP
CLK3 = CLK3 (Homo sapiens, UniProt P49761); conditions: 1 μM, KmATP
CSNK1D (CK1 delta) = CSNK1D (CK1 delta) (Homo sapiens, UniProt P48730); conditions: 1 μM, KmATP
CSNK1E (CK1 epsilon) = CSNK1E (CK1 epsilon) (Homo sapiens, UniProt P49674); conditions: 1 μM, KmATP
CSNK2A1 (CK2alpha1) = CSNK2A1 (CK2alpha1) (Homo sapiens, UniProt P68400); conditions: 1 μM, KmATP
DAPK3 (ZIPK) = DAPK3 (ZIPK) (Homo sapiens, UniProt O43293); conditions: 1 μM, KmATP
DYRK4 = DYRK4 (Homo sapiens, UniProt Q9NR20); conditions: 1 μM, KmATP
EEF2K = EEF2K (Homo sapiens, UniProt O00418); conditions: 1 μM, KmATP
EPHB2 = EPHB2 (Homo sapiens, UniProt P29323)
GSK3B = GSK3B (Homo sapiens, UniProt P49841)
IGF1R = IGF1R (Homo sapiens, UniProt P08069); conditions: 1 μM, KmATP
IKBKE (IKK epsilon) = IKBKE (IKK epsilon) (Homo sapiens, UniProt Q14164); conditions: 1 μM, KmATP
LTK (TYK1) = LTK (TYK1) (Homo sapiens, UniProt P29376); conditions: 1 μM, KmATP
MAP3K19 (YSK4) = MAP3K19 (YSK4) (Homo sapiens, UniProt Q56UN5); conditions: 1 μM, KmATP
MAP3K9 (MLK1) = MAP3K9 (MLK1) (Homo sapiens, UniProt P80192); conditions: 1 μM, KmATP
MAP4K4 (HGK) = MAP4K4 (HGK) (Homo sapiens, UniProt O95819); conditions: 1 μM, KmATP
MAPK12 (p38 gamma) = MAPK12 (p38 gamma) (Homo sapiens, UniProt P53778); conditions: 1 μM, KmATP
MAPK7 (ERK5) = MAPK7 (ERK5) (Homo sapiens, UniProt Q13164); conditions: 1 μM, KmATP
NEK6 = NEK6 (Homo sapiens, UniProt Q9HC98); conditions: 1 μM, KmATP
PIM3 = PIM3 (Homo sapiens, UniProt Q86V86); conditions: 1 μM, KmATP
PKN1 (PRK1) = PKN1 (PRK1) (Homo sapiens, UniProt Q16512); conditions: 1 μM, KmATP
PLK1 = PLK1 (Homo sapiens, UniProt P53350); conditions: 1 μM, KmATP
PRKCB1 (PKC beta I) = PRKCB1 (PKC beta I) (Homo sapiens, UniProt P05771); conditions: 1 μM, KmATP
PRKCI (PKC iota) = PRKCI (PKC iota) (Homo sapiens, UniProt P41743); conditions: 1 μM, KmATP
PTK2 (FAK) = PTK2 (FAK) (Homo sapiens, UniProt Q05397); conditions: 1 μM, KmATP
ROCK2 = ROCK2 (Homo sapiens, UniProt O75116); conditions: 1 μM, KmATP
RPS6KB1 (p70S6K) = RPS6KB1 (p70S6K) (Homo sapiens, UniProt P23443); conditions: 1 μM, KmATP
RPS6KB2 = RPS6KB2 (Homo sapiens, UniProt Q9UBS0); conditions: 1 μM, KmATP
STK23 (MSSK1) = STK23 (MSSK1) (Homo sapiens, UniProt Q9UPE1); conditions: 1 μM, KmATP
STK24 (MST3) = STK24 (MST3) (Homo sapiens, UniProt Q9Y6E0); conditions: 1 μM, KmATP
TXK = TXK (Homo sapiens, UniProt P42681); conditions: 1 μM, KmATP
YES1 = YES1 (Homo sapiens, UniProt P07947)

## Cc1nc(C(F)(F)F)c2c(C(N)=O)c(N)n(-c3c(C)ccc(O)c3C)c2n1 (single isomer, unassigned)
ADRBK1 (GRK2)
  MEAN INHIBITION: 2.161%
ADRBK2 (GRK3)
  MEAN INHIBITION: 3.532%
AKT2 (PKB beta)
  MEAN INHIBITION: 2.960%
AKT3 (PKB gamma)
  MEAN INHIBITION: 2.961%
AMPK A1/B1/G1
  MEAN INHIBITION: 6.558%
AMPK A2/B1/G3
  MEAN INHIBITION: 2.507%
BRSK1 (SAD1)
  MEAN INHIBITION: 0.568%
CAMK1D
  MEAN INHIBITION: 6.089%
CLK3
  MEAN INHIBITION: 5.160%
CSNK1D (CK1 delta)
  MEAN INHIBITION: 1.788%
CSNK1E (CK1 epsilon)
  MEAN INHIBITION: 0.607%
CSNK2A1 (CK2alpha1)
  MEAN INHIBITION: 1.840%
DAPK3 (ZIPK)
  MEAN INHIBITION: 2.416%
DYRK4
  MEAN INHIBITION: 0.423%
EEF2K
  MEAN INHIBITION: 7.251%
EPHB2; 1 μM, KmATP
  MEAN INHIBITION: 68.536%
EPHB2; 10-point CR, ATP 75.000 μM
  IC50: 374 nM
GSK3B; 1 μM, KmATP
  MEAN INHIBITION: 46.076%
GSK3B; 10-point CR, ATP 10.000 μM
  IC50: 635 nM
IGF1R
  MEAN INHIBITION: 1.081%
IKBKE (IKK epsilon)
  MEAN INHIBITION: 3.320%
LTK (TYK1)
  MEAN INHIBITION: 3.950%
MAP3K19 (YSK4)
  MEAN INHIBITION: 1.798%
MAP3K9 (MLK1)
  MEAN INHIBITION: −6.777%
MAP4K4 (HGK)
  MEAN INHIBITION: 15.192%
MAPK12 (p38 gamma)
  MEAN INHIBITION: 9.311%
MAPK7 (ERK5)
  MEAN INHIBITION: −0.819%
NEK6
  MEAN INHIBITION: 1.053%
PIM3
  MEAN INHIBITION: 0.696%
PKN1 (PRK1)
  MEAN INHIBITION: 3.985%
PLK1
  MEAN INHIBITION: 2.360%
PRKCB1 (PKC beta I)
  MEAN INHIBITION: 0.364%
PRKCI (PKC iota)
  MEAN INHIBITION: 1.145%
PTK2 (FAK)
  MEAN INHIBITION: 2.177%
ROCK2
  MEAN INHIBITION: 5.617%
RPS6KB1 (p70S6K)
  MEAN INHIBITION: 1.466%
RPS6KB2
  MEAN INHIBITION: 2.179%
STK23 (MSSK1)
  MEAN INHIBITION: 1.780%
STK24 (MST3)
  MEAN INHIBITION: 6.812%
TXK
  MEAN INHIBITION: 9.164%
YES1; 1 μM, KmATP
  MEAN INHIBITION: 62.995%
YES1; 10-point CR, ATP 25.000 μM
  IC50: 249 nM
